# PubChem BioAssay AID1006 (Sanford-Burnham Center for Chemical Genomics, 2008)
# By UniProt entry, the sequences of proteins in these tests, tags left out.
# UniProt P08659, whole entry, looked up: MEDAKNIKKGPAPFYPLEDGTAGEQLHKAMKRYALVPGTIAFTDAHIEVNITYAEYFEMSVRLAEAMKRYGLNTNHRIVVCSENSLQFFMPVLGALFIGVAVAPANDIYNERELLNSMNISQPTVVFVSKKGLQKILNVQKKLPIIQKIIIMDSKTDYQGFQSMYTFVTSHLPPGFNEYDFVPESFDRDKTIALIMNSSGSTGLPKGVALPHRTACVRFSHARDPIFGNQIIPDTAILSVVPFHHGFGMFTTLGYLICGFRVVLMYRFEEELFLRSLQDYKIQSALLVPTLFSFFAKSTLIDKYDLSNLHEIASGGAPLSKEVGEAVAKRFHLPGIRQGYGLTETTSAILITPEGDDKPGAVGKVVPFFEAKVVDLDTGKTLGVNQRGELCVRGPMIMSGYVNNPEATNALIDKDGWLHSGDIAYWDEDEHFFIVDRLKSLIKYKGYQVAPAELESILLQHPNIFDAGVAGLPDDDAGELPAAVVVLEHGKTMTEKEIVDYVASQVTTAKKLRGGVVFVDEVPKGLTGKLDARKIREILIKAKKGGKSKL
# The entries are a selection whose mix differs from that of the whole data set. Calls of active or inactive are those of the source.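 How the source made its calls: active means inhibition above about 50% when tested at 10 µM (limit read from the data); inactive means the rest.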
# Target: Luciferin 4-monooxygenase (Photinus pyralis) (UniProt P08659)
# Assay: firefly luciferase enzyme inhibitors, primary screen, artefact control for luciferase-based inhibitor screens, biochemical, luminescence, ATPLite (AID 1006)
# Conditions: 10 min, at 10 µM, hits give high values
row,Compound,inhibition
1,Fc1ccccc1NC1CCN(Cc2ccccc2)CC1,inactive: -12.8%
2,CCN1CCC(Nc2cccc(F)c2)CC1,inactive: -7%
3,CN(C)c1ccc(C(=O)NCC2(N3CCCCC3)CCCCC2)cc1,inactive: -5.3%
4,CCOc1ncccc1C(=O)NCC1(N2CCOCC2)CCCCC1,inactive: -6.4%
5,CC(C)(C)OC(=O)N1CCC(Nc2ccccc2)CC1,inactive: -4.2%
6,CCC(CO)(C(=O)OC1CN2CCC1CC2)c1ccccc1 (stereo not given),inactive: -7%
7,COc1cc(OC)cc(C(=O)NCC2(N3CCOCC3)CCCCC2)c1,inactive: -8.9%
8,COc1ccc(C(=O)NCC2(N3CCOCC3)CCCCC2)cc1OC,inactive: -7.5%
9,N/C(=N\O)c1c(N)no[n+]1[O-],inactive: -4%
10,O=C(OC1CN2CCC1CC2)C1c2ccccc2C=Cc2ccccc21 (stereo not given),inactive: -7.6%
11,N#Cc1ccc(C(=O)NCC2(N3CCCCC3)CCCCC2)cc1,inactive: -11.1%
12,c1ccc(CN2CCC(Nc3ccccc3)CC2)cc1,inactive: 0.1%
13,O=C(NCC1(N2CCCCC2)CCCCC1)c1cccc([N+](=O)[O-])c1,inactive: -7.6%
14,N#CC1(Nc2ccccc2)CCN(CCc2ccccc2)CC1,inactive: -6.5%
15,CN1CCN(CCOC(=O)C(O)(c2ccccc2)c2ccccc2)CC1,inactive: -5.8%
16,COc1ccc(NC2CCN(C(=O)OC(C)(C)C)CC2)cc1,inactive: 0.6%
17,O=C(NCC1(N2CCOCC2)CCCCC1)c1cc(=O)[nH]c2ccccc12,inactive: -1.1%
18,COc1ccc(CN(CCCl)CCCl)cc1Cl,inactive: -6%
19,CN(C)c1cccc(C(=O)NCC2(N3CCCCC3)CCCCC2)c1,inactive: -6.1%
20,CC(C)c1ccc(NC2CCN(C(=O)OC(C)(C)C)CC2)cc1,inactive: -4.7%
21,COc1ccc(C(=O)NCC2(N3CCCCC3)CCCCC2)c(OC)c1OC,inactive: -4.1%
22,O=C(NCC1(N2CCOCC2)CCCCC1)c1cc2ccccc2o1,inactive: -5.6%
23,CCOC(=O)N1CCC(Nc2ccc(OC)cc2)CC1,inactive: -2%
24,O=C(OC1CN2CCC1CC2)C1c2ccccc2Oc2ccccc21 (stereo not given),inactive: -3.3%
25,COc1ccc(NC2CCN(CCc3ccccc3)CC2)c(OC)c1,inactive: -8.7%
